# OPERA 2.9 data: logP (octanol/water) values

Data: OPERA 2.9 data sets, kmansouri/OPERA on GitHub.

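The numbers are reported measurements, compiled and curated for the OPERA QSAR suite. One number stands for a compound and property, with no spread given. Method and conditions are not stated for these values. A value may pool stereoisomers or salt forms, and the file does not say which form was measured. Some entries may be limits or estimates that an upstream database listed as plain numbers.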

logP is the log10 of the octanol-water partition coefficient; higher is more lipophilic.
"n/a" marks a cell with nothing listed here.
The databases behind each value are named after "via".

SMILES | name | log Kow | via
CC(=O)CCC1=C(C)CCCC1(C)C | Dihydro-beta-ionone | 4.5 | eChemPortal
O=C(Nc1ccc(Cl)cc1)c1cc2ccccc2cc1O | 2-Naphthalenecarboxamide, N-(4-chlorophenyl)-3-hydroxy- | 2.97 | eChemPortal
CCN(CC)c1ccc2cc3c(oc2c1)c(C#N)c(=O)n1c2ccccc2nc31 | n/a | 3.6 | eChemPortal
CN1CCN(C)C1=O | 1,3-Dimethyl-2-imidazolidinone | -0.3 | eChemPortal
CCCCCCCCC(CO)CCCCCC (configuration not stated) | 2-Hexyl-1-decanol | 6.8 | eChemPortal
C=C(C)COCC/C=C\CC | (3Z)-1-[(2-Methylprop-2-en-1-yl)oxy]hex-3-ene | 4.09 | eChemPortal
CCN1Cn2c(nc3ccccc3c2=O)C1C (configuration not stated) | 2-Ethyl-3-methyl-1,3-dihydroimidazo[5,1-b]quinazolin-9-one | 1.02 | OCHEM
CC[C@H]1OC(=O)C[C@@H](O)[C@H](C)[C@@H](O[C@@H]2O[C@H](C)[C@@H](O)[C@H](N(C)C)[C@H]2O)[C@@H](CC=O)C[C@@H](C)C(=O)C=CC(C)=C[C@@H]1CO[C@@H]1O[C@H](C)[C@@H](O)[C@@H](OC)[C@H]1OC | Tylosin B | 1 | OCHEM
O=[N+]([O-])c1ccc(O)cc1C(F)(F)F | 3-Trifluoromethyl-4-nitrophenol | 2.84 | OCHEM, eChemPortal
COC(=O)[C@H]1[C@H]2C[C@@H]3c4[nH]c5ccccc5c4CCN3C[C@H]2C[C@@H](OC(=O)c2cc(OC)c(OC)c(OC)c2)[C@@H]1OC | Deserpidine | 3.3 | PubChem
O=C1C(=C2Sc3ccccc3C2=O)Sc2ccccc21 | n/a | 3.53 | eChemPortal
CC[C@@]12CC[C@H]3C4=C(CC[C@@H]3[C@H]1CCC2=O)CC(OC)=CC4 (racemic) | n/a | 5.88 | eChemPortal
C=CCCCC=CCOC | 1-Methoxy-2,7-octadiene | 2.98 | eChemPortal
COc1cc(Br)c(CCC#N)cc1OC | 3-(2-Bromo-4,5-dimethoxyphenyl)propanenitrile | 1.98 | eChemPortal
N#CCCN(CCC#N)c1ccc(N=Nc2ccc([N+](=O)[O-])cc2Cl)cc1 | n/a | 2.074 | eChemPortal
O=C1c2ccc3c4ccc5c6c(ccc(c7ccc(c2c37)C(=O)N1CCc1ccccc1)c64)C(=O)N(CCc1ccccc1)C5=O | n/a | 1.6 | eChemPortal
CC(C)(C)c1cc(Cc2cc(C(C)(C)C)c(O)c(C(C)(C)C)c2)cc(C(C)(C)C)c1O | 4,4'-Methylenebis(2,6-di-t-butylphenol) | 6.95 | eChemPortal
CCCC(=O)C1=C(O)CC(C2CCCSC2)CC1=O (configuration not stated) | 2-Butanoyl-3-hydroxy-5-(thian-3-yl)cyclohex-2-en-1-one | 4.1 | eChemPortal
CC(CC(=O)O)CC(C)(C)C (configuration not stated) | 3,5,5-Trimethylhexanoic acid | 3.2 | eChemPortal
O=C(O)c1ccc2c(c1)C(=O)OC2=O | Trimellitic anhydride | 0.54 | eChemPortal
CN1CC(=O)N2[C@H](c3ccc4c(c3)OCO4)c3[nH]c4ccccc4c3C[C@@H]2C1=O | Tadalafil | 1.7 | PubChem
CN(C)C(=O)Nc1ccc(Cc2ccc(NC(=O)N(C)C)cc2)cc1 | Urea, N,N''-(methylenedi-4,1-phenylene)bis[N',N'-dimethyl- | 0.88 | eChemPortal
CCC(Cc1ccccc1)(C(=O)c1ccc(N2CCOCC2)cc1)N(C)C (configuration not stated) | n/a | 2.91 | eChemPortal
CC(=O)OC1CCCCC1 | Cyclohexyl acetate | 2.64 | PubChem
FC(F)(F)OC(F)(F)OC(F)(Cl)C(F)(F)Cl (configuration not stated) | 1,2-dichloro(perfluoro-1-(methoxymethoxy)ethane) | 4.4 | eChemPortal
CN(C)Cc1ccc(C(=O)OCn2[nH]cc3c(=O)ncnc2-3)cc1 | n/a | 1.05 | OCHEM
CCc1cc2c3ccccc3ccc2c2ccccc12 | 6-Ethylchrysene | 6.56 | OCHEM
O=C(c1ccccc1)c1ccc(O)c(O)c1O | 2,3,4-Trihydroxbenzophenone | 2.8 | eChemPortal
CC(C)(O)C(=O)c1ccc(C2(C)CC(C)(C)c3ccc(C(=O)C(C)(C)O)cc32)cc1 (configuration not stated) | n/a | 3.19 | eChemPortal
OCC1CCCO1 (configuration not stated) | Tetrahydrofurfuryl alcohol | 0.291 | eChemPortal
BrC(Br)C(Br)Br | 1,1,2,2-Tetrabromoethane | 2.8 | PubChem
N#CCC(=O)OCC(COC(=O)CC#N)(COC(=O)CC#N)COC(=O)CC#N | n/a | 1.5 | eChemPortal
CCCN(C)C | Dimethyl-N-propylamine | 1.32 | eChemPortal
CSc1nc2nc(Cl)ccc2[nH]1 | 5-Chloro-2-(methylthio)-3H-imidazo[4,5-b]pyridine | 2.39 | OCHEM
OCCCCCCc1ccccc1 | Benzenehexanol | 3.29 | OCHEM
CCCCCCCS | 1-Heptanethiol | 3.7 | PubChem
CC(O)C(=O)OCC1CC=CCC1 (configuration not stated) | n/a | 2.3 | eChemPortal
C/C(=C\C1CCCCC1)CC(C)C=O (stereo partly drawn) | n/a | 4.38 | eChemPortal
CCCCC(O)C(N)CC (configuration not stated) | 4-Octanol, 3-amino- | 1.3 | eChemPortal
OCCOc1cccc(OCCO)c1 | 2,2'-[Benzene-1,3-diylbis(oxy)]diethanol | 0.26 | eChemPortal
CC(=O)c1cc[n+](C)cc1.Cc1ccc(S(=O)(=O)[O-])cc1 | n/a | -2.547 | eChemPortal

Extract of 4 entries:

SMILES | name | log Kow | via
CC(=O)c1cc[n+](C)cc1.Cc1ccc(S(=O)(=O)[O-])cc1 | n/a | -2.547 | eChemPortal
OCCOc1cccc(OCCO)c1 | 2,2'-[Benzene-1,3-diylbis(oxy)]diethanol | 0.26 | eChemPortal
FC(F)(F)OC(F)(F)OC(F)(Cl)C(F)(F)Cl (configuration not stated) | 1,2-dichloro(perfluoro-1-(methoxymethoxy)ethane) | 4.4 | eChemPortal
C=CCCCC=CCOC | 1-Methoxy-2,7-octadiene | 2.98 | eChemPortal